High-throughput results: PubChem, Broad Institute
Rows were chosen to be rich in hits. Some 1% of all compounds tested hit in one or more screens of this group.
Yeast UUG start: alters start codon recognition fidelity in yeast; AID 602363; activity score, % at 18.7 µM; 350,000 tested, 0.13% active; S. cerevisiae UUG-firefly luciferase reporter, luminescence/redox ratio;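 active means replicate mean at a twofold rise or more, about +100% in these data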;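 further: firefly luciferase made from a UUG start codon reports start codon fidelity; reporter light over untreated wells divided by growth signal over untreated wells; some hits fall short of that in this replicate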
Cneo AK release: Cryptococcus neoformans cell lysis inducers, primary screen, AK release luminescence, single concentration; lysis activity, % at 15 µM; AID 651654, 2012; 360,000 compounds, 0.2% hits; C. neoformans lysis, adenylate kinase release luminescence, 4 h; normalised: neutral wells 0, clomiphene wells 100;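 active = mean lysis activity across replicates of at least 80%, whatever share of replicates individually reach that level; inactive = mean lysis activity below 80%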
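read-out = cell lysis signal | test system = log-phase Cryptococcus neoformans yeast cells | input = cells at 5 × 10^6 per mL | medium = fresh YPD growth medium | signal = luminescent adenylate kinase detection reagent | timing = 4 h at 37 °C static, read 1 h later | dosing = single dose | controls = Clomiphene as positive lysis control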
Rtt109 HAT inh: inhibitors of C. albicans Rtt109/Vps75 HAT, primary screen, biochemical, ThioGlo CoA-SH fluorescence, plate reader. purified Rtt109/Vps75, 4 h. inhibition, % at 34.9 µM. 330,000 compounds, 0.16% hits. AID 540336, 2011;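 active = inhibition of at least 50% in every replicate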
CDK5 inh: inhibitors of human CDK5/p35 kinase, primary screen, biochemical, single concentration. Cyclin-dependent kinase 5 (Homo sapiens) + Cyclin-dependent kinase 5 activator 1 (Homo …. Recombinant CDK5/p35, ADP-Glo luminescence, 60 min. inhibition, % at 10 µM. 330,000 compounds, 0.01% hits. AID 488839, 2010;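 active = highest replicate inhibition of at least 50% and at least 75% of replicates reaching 50%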;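 also: plate controls were DMSO neutral control for no effect and GW8510 at 10 µM for full effect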
Statin myotox sup: suppressors of statin myotoxicity in C2C12 myotubes, primary screen, cell-based, single point, plate reader; C2C12 myotubes + simvastatin, ATP luminescence, 48 h; scaled: DMSO 0, geranylgeraniol control 100; AID 602340, 2012; 330,000 compounds, 0.78% hits; rescue of ATP level, % at 7.49 µM;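 active = mean ATP rescue above about 67%, or every replicate alone reaching that limit, limit read from the data, passing the limit was not always enough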;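 also: myotubes were challenged with 10 µM simvastatin during compound exposure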
Starred values were filed as active, the others as inactive.

Cc1ccc(S(=O)(=O)Nc2ccc3c(c2)CC(=O)N([C@@H](C)CO)C[C@@H](C)[C@@H](CN(C)Cc2ccc4c(c2)OCO4)O3)cc1 was read as Yeast UUG start 16, Cneo AK release 50 and Statin myotox sup 36.
Screening Cc1ccc(S(=O)(=O)Nc2ccc3c(c2)CC(=O)N([C@H](C)CO)C[C@H](C)[C@@H](CN(C)Cc2ccc4c(c2)OCO4)O3)cc1 returned Yeast UUG start -2, Cneo AK release 2 and Statin myotox sup 76*.
For CCCNC(=O)Nc1ccc2c(c1)C(=O)N(C)[C@H]1CC[C@H](CC(=O)Nc3cccc(C)c3)O[C@@H]1CO2 the results were Yeast UUG start 4, Cneo AK release 0 and Statin myotox sup -25.
Screening O=C(CNC(=O)c1cccc(Br)c1)N/N=C/c1cccs1 returned Yeast UUG start -1, Cneo AK release 1, Rtt109 HAT inh 59*, CDK5 inh -1 and Statin myotox sup 2.
`CC(C)(C)c1ccc(C(=O)NCC(=O)N/N=C/c2cccs2)cc1` gave Yeast UUG start -18, Cneo AK release 0, Rtt109 HAT inh -1, CDK5 inh 0 and Statin myotox sup -17.
Screening N/C(=N\c1nc2ccccc2o1)NC(=O)c1ccc(F)cc1 returned Yeast UUG start -7, Cneo AK release -9, Rtt109 HAT inh 8, CDK5 inh 2 and Statin myotox sup 83*.
Screening CCC(=O)N1[C@@H](CO)[C@@H]2c3ccccc3N(C(=O)Nc3ccccc3Cl)C[C@@H]21 returned Yeast UUG start -7, Cneo AK release 0 and Statin myotox sup 6.
`CC(C)COc1ccc(CNC(=S)NCc2ccccc2)cc1` gave Yeast UUG start -25, Cneo AK release 182*, Rtt109 HAT inh 8, CDK5 inh 3 and Statin myotox sup -7.
`COc1ccc(-c2ccc3n(c2=O)C[C@@H]2[C@@H](CO)[C@H](C(=O)N(C)C)[C@H]3N2Cc2ccncc2)cc1` gave Cneo AK release -2 and Statin myotox sup 23.
COc1ccc(NC(=O)N(C)C[C@H]2OCCCC[C@H](C)Oc3ccc(NC(=O)C4CCCCC4)cc3C(=O)N([C@@H](C)CO)C[C@@H]2C)cc1 was read as Yeast UUG start 44 and Cneo AK release 90*.

Three entries already listed, ordered by length of the SMILES, lowest first:
Screening O=C(CNC(=O)c1cccc(Br)c1)N/N=C/c1cccs1 returned Yeast UUG start -1, Cneo AK release 1, Rtt109 HAT inh 59*, CDK5 inh -1 and Statin myotox sup 2.
Screening CCC(=O)N1[C@@H](CO)[C@@H]2c3ccccc3N(C(=O)Nc3ccccc3Cl)C[C@@H]21 returned Yeast UUG start -7, Cneo AK release 0 and Statin myotox sup 6.
COc1ccc(NC(=O)N(C)C[C@H]2OCCCC[C@H](C)Oc3ccc(NC(=O)C4CCCCC4)cc3C(=O)N([C@@H](C)CO)C[C@@H]2C)cc1 was read as Yeast UUG start 44 and Cneo AK release 90*.

New compounds follow.
COc1ccc(NC(=O)N(C)C[C@H]2OCCCC[C@@H](C)Oc3ccc(N(C)C)cc3C(=O)N([C@H](C)CO)C[C@H]2C)cc1 was read as Yeast UUG start 67, Cneo AK release 112* and Statin myotox sup 21.
COc1ccc(NC(=O)N(C)C[C@@H]2OCCCC[C@H](C)Oc3ccc(NC(=O)Nc4ccc5c(c4)OCO5)cc3C(=O)N([C@H](C)CO)C[C@@H]2C)cc1 was read as Yeast UUG start 7, Cneo AK release 92* and Statin myotox sup 18.
Screening CO[C@H]1CN(C)C(=O)c2cc(NC(=O)NC(C)C)ccc2OC[C@@H](C)NC[C@H]1C returned Cneo AK release -2 and Statin myotox sup 10.
Screening C[C@H](CO)N1C[C@H](C)[C@H](CN(C)C(=O)c2cccc(F)c2)Oc2cc(-c3ccncc3)ccc2S1(=O)=O returned Yeast UUG start -5, Cneo AK release -18 and Statin myotox sup -9.
`COCC(=O)Nc1ccc2c(c1)C(=O)N(C)[C@H]1CC[C@H](CC(=O)NCc3ccccc3)O[C@H]1CO2` gave Yeast UUG start 1, Cneo AK release 41 and Statin myotox sup 5.
Screening CC(C)(C)CC(=O)NC(=S)NCCc1ccccc1 returned Yeast UUG start -6, Cneo AK release 100*, Rtt109 HAT inh 7, CDK5 inh 0 and Statin myotox sup -22.
Screening COc1cc(C(=O)N2CCN(c3ccccn3)CC2)cc(OC)c1OC returned Yeast UUG start -16, Cneo AK release 1, Rtt109 HAT inh -7, CDK5 inh 89* and Statin myotox sup 16.
`COc1ccc(C(=O)N2CCN(C(=O)c3cc(OC)c(OC)c(OC)c3)CC2)cc1` gave Yeast UUG start -12, Cneo AK release -2, Rtt109 HAT inh -11, CDK5 inh 0 and Statin myotox sup 108*.
